SMILES strings stand for the structures. The list shows a part of the results, in another mix than the full data. Some tests of the compounds listed are not included; inactive here does not mean inactive elsewhere. The source made the active and inactive calls. No stated cut-off is given here; in the data, active means TR-FRET ratio above about 2300; inactive means the rest.

The nature of this experiment: TR-FRET detection interference compounds, primary screen, artefact control for PPARgamma SRC-1 recruitment agonists, biochemical, TR-FRET emission ratio (AID 1051). The following applies: TR-FRET detection artefact counter-screen, at 8 µM, hits give high values. (Time-resolved FRET reads energy transfer from a long-lived donor to a nearby acceptor.)
Turning to `O=C(NCC1(N2CCCCC2)CCCCC1)c1cc([N+](=O)[O-])ccc1Cl`, the TR-FRET ratio was inactive: 1600.
As to `CCN1CCCC(OC(=O)C2(O)c3ccccc3C=Cc3ccccc32)C1` (stereo unspecified), the TR-FRET ratio was inactive: 1790.
On to `C=CCN1CCN(CCOC(=O)C(O)(c2ccccc2)c2ccccc2)CC1`, for which the TR-FRET ratio was inactive: 1910.
The value for `CN(C)C1CCCC1OC(=O)C(O)(c1ccccc1)c1ccccc1` (stereo unspecified) was inactive: 2040; that for `Cc1ccccc1C(=O)NCC1(N2CCCCC2)CCCCC1` was inactive: 1840; that for `COc1cccc(C(=O)NCC2(N3CCCCC3)CCCCC2)c1` was inactive: 1690.

The record behind these values is PubChem BioAssay AID1051 (The Scripps Research Institute Molecular Screening Center, 2008).
